{
  "source": "PubChem BioAssay AID651640",
  "about": "(Broad Institute, 2012)",
  "note": "The entries are a selection whose mix differs from that of the whole data set. Results filed as inconclusive are left out. Some salts and complexes are drawn in separate pieces, as the source files them; their charges need not balance. The source made the active and inactive calls. Rule as the data show it: active = CPE inhibition above about 20% (passing the limit was not always enough); inconclusive = no clear call, values can overlap the other calls; tested in BHK-21 cells.",
  "data": [
    {"test": "protection of cells from dengue 2 killing – plate reader, single concentration, primary screen (AID 651640);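 also: 0% = median of neutral control wells and 100% = median of positive control wells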", "conditions": "DENV2-infected cells, cytopathic effect rescue, at 9.99 µM, hits give high values", "values": [
      {"smiles": "O=[N+]([O-])c1cc([N+](=O)[O-])c(-c2cnn(-c3ccccc3)c2)c([N+](=O)[O-])c1", "CPE inhibition": "inactive: -6.37%"},
      {"smiles": "CN(Cc1cccnc1)C(=O)COc1ccc(Cl)c(Cl)c1.O=[N+]([O-])c1cc([N+](=O)[O-])c(O)c([N+](=O)[O-])c1", "CPE inhibition": "inactive: -7.39%"},
      {"smiles": "COc1ccc(-c2ccccn2)cc1.O=[N+]([O-])c1cc([N+](=O)[O-])c(O)c([N+](=O)[O-])c1", "CPE inhibition": "inactive: 3.41%"},
      {"smiles": "CCCOc1ccc(NP(C)(=O)Oc2ccc(Cl)cc2)cc1", "note": "(stereo not given)", "CPE inhibition": "inactive: 1.52%"},
      {"smiles": "CN1CCCCC1COC(=O)C1(O)c2ccccc2CCc2ccccc21", "note": "(stereo not given)", "CPE inhibition": "inactive: 2.42%"},
      {"smiles": "CCOC(=O)C(CC)C1=NC(C)(C)Cc2ccccc21.O=[N+]([O-])c1cc([N+](=O)[O-])c(O)c([N+](=O)[O-])c1", "note": "(stereo not given)", "CPE inhibition": "inactive: -3.75%"},
      {"smiles": "O=[N+]([O-])c1cc([N+](=O)[O-])c(Nc2nnnn2CCO)c([N+](=O)[O-])c1", "CPE inhibition": "inactive: 3.41%"},
      {"smiles": "O=C(O)c1cccc(Nc2c([N+](=O)[O-])cc([N+](=O)[O-])cc2[N+](=O)[O-])c1", "CPE inhibition": "inactive: 2.61%"},
      {"smiles": "CP(=O)(Nc1cccc(Br)c1)Oc1ccccc1", "note": "(stereo not given)", "CPE inhibition": "inactive: 4.12%"},
      {"smiles": "CCOC(=O)c1ccc(NP(C)(=O)Oc2cc(C)cc(C)c2)cc1", "note": "(stereo not given)", "CPE inhibition": "inactive: -7.71%"},
      {"smiles": "Cc1cc(C)cc(OP(C)(=O)Nc2ccc(C)cc2C)c1", "note": "(stereo not given)", "CPE inhibition": "inactive: 11.3%"},
      {"smiles": "COc1ccccc1OP(C)(=O)Nc1cccc(Br)c1", "note": "(stereo not given)", "CPE inhibition": "inactive: 2.22%"},
      {"smiles": "COc1ccccc1-c1ccccn1.O=[N+]([O-])c1cc([N+](=O)[O-])c(O)c([N+](=O)[O-])c1", "CPE inhibition": "inactive: -5.71%"},
      {"smiles": "CCN(CC)CCCOC(=O)C(O)(c1ccccc1)c1ccccc1", "CPE inhibition": "inactive: 3.22%"},
      {"smiles": "Cc1cc(C)cc(OP(C)(N)=O)c1", "note": "(stereo not given)", "CPE inhibition": "inactive: 9.29%"},
      {"smiles": "COc1ccccc1OP(C)(=O)Nc1cc(Cl)ccc1C", "note": "(stereo not given)", "CPE inhibition": "inactive: 4.15%"},
      {"smiles": "O=[N+]([O-])c1ccc2c(c1)C=Nc1ccccc1O2", "CPE inhibition": "inactive: -3.1%"},
      {"smiles": "Cc1cccc(C)c1OP(C)(N)=O", "note": "(stereo not given)", "CPE inhibition": "inactive: 11.5%"},
      {"smiles": "CC(C)(C)c1ccc(OP(C)(=O)Nc2ccc(SC(F)(F)F)cc2)cc1", "note": "(stereo not given)", "CPE inhibition": "inactive: -17%"},
      {"smiles": "O=[N+]([O-])c1cc([N+](=O)[O-])c(Nc2cccnc2)c([N+](=O)[O-])c1", "CPE inhibition": "inactive: -3.68%"},
      {"smiles": "COc1ccccc1OP(C)(=O)Nc1ccccc1", "note": "(stereo not given)", "CPE inhibition": "inactive: 0.102%"},
      {"smiles": "CP(=O)(Nc1ccccn1)Oc1ccc(Cl)cc1", "note": "(stereo not given)", "CPE inhibition": "inactive: -1.71%"},
      {"smiles": "O=[N+]([O-])c1cc([N+](=O)[O-])c(O)c([N+](=O)[O-])c1.c1ccc(Oc2ccncc2)cc1", "CPE inhibition": "inactive: -11.3%"},
      {"smiles": "CP(=O)(NC(=O)Nc1ccccc1)Oc1ccccc1", "note": "(stereo not given)", "CPE inhibition": "inactive: -3.15%"},
      {"smiles": "CCc1ccc(OP(C)(=O)N2CCN(c3ccc([N+](=O)[O-])cc3)CC2)cc1", "note": "(stereo not given)", "CPE inhibition": "inactive: -3.39%"},
      {"smiles": "CN(C)C(=O)c1c([N+](=O)[O-])cc([N+](=O)[O-])cc1[N+](=O)[O-]", "CPE inhibition": "inactive: 0.316%"},
      {"smiles": "COc1ccccc1OP(C)(=O)Nc1ccccc1Br", "note": "(stereo not given)", "CPE inhibition": "inactive: -0.856%"},
      {"smiles": "O=C(OCCCN1CCCC1)C(O)(c1ccccc1)C1CCCCC1", "note": "(stereo not given)", "CPE inhibition": "inactive: 0.451%"},
      {"smiles": "CCc1ccc(OP(C)(=O)Nc2cccnc2)cc1", "note": "(stereo not given)", "CPE inhibition": "inactive: 13.8%"},
      {"smiles": "CCOC(=O)c1ccc(NP(C)(=O)Oc2ccc(Cl)cc2)cc1", "note": "(stereo not given)", "CPE inhibition": "active: 42.7%"},
      {"smiles": "Nc1ccc2c(ccc3cccnc32)n1.O=[N+]([O-])c1cc([N+](=O)[O-])c(O)c([N+](=O)[O-])c1", "CPE inhibition": "inactive: 6.31%"},
      {"smiles": "CCCCCCCCCCCCCCCC1C[N+](C)(C)CCOP(C)(=O)O1", "note": "(stereo not given)", "CPE inhibition": "inactive: 9.86%"},
      {"smiles": "CP(=O)(Nc1ccc(Cl)cc1Cl)Oc1ccccc1", "note": "(stereo not given)", "CPE inhibition": "inactive: -1.53%"},
      {"smiles": "CP(=O)(OCCOc1ccccc1)OCCOc1ccccc1", "CPE inhibition": "inactive: 1.5%"},
      {"smiles": "O=C1C(O)=C([N+](=O)[O-])C(=O)C(O)=C1[N+](=O)[O-]", "CPE inhibition": "inactive: -3.75%"},
      {"smiles": "O=[N+]([O-])c1cc([N+](=O)[O-])c(Nc2ccccn2)c([N+](=O)[O-])c1", "CPE inhibition": "inactive: 3.54%"},
      {"smiles": "COc1ccccc1OP(C)(=O)Nc1ccc(Br)cc1", "note": "(stereo not given)", "CPE inhibition": "inactive: 0.615%"},
      {"smiles": "COc1ccc2c(c1O)-c1c(O)c(OC)cc3c1[C@H](C2)[N+](C)(C)CC3.O=[N+]([O-])c1cc([N+](=O)[O-])c([O-])c([N+](=O)[O-])c1[O-]", "CPE inhibition": "inactive: 2.46%"},
      {"smiles": "O=C(OC1CN2CCC1CC2)c1ccc([N+](=O)[O-])cc1", "note": "(stereo not given)", "CPE inhibition": "inactive: 4.14%"},
      {"smiles": "O=C(OCCN1CCN(CCOCc2ccccc2)CC1)C(O)(c1ccccc1)c1ccccc1", "CPE inhibition": "inactive: -8.59%"},
      {"smiles": "CP(=O)(Nc1ccccc1F)Oc1ccccc1", "note": "(stereo not given)", "CPE inhibition": "inactive: -5.21%"},
      {"smiles": "CC(C)c1ccc(OP(C)(=O)Nc2ccc(SC(F)(F)F)cc2)cc1", "note": "(stereo not given)", "CPE inhibition": "inactive: 2.85%"},
      {"smiles": "CCCCCOc1ccc(NP(C)(=O)Oc2ccc(Cl)cc2Cl)cc1", "note": "(stereo not given)", "CPE inhibition": "inactive: -6.66%"},
      {"smiles": "O=[N+]([O-])c1cc([N+](=O)[O-])c(OC2CCCCC2O)c([N+](=O)[O-])c1", "note": "(stereo not given)", "CPE inhibition": "inactive: -2.33%"},
      {"smiles": "Cc1c([N+](=O)[O-])cc([N+](=O)[O-])c(Br)c1[N+](=O)[O-]", "CPE inhibition": "inactive: 7.77%"},
      {"smiles": "COc1ccc(OP(C)(=O)Nc2ccc(SC(F)(F)F)cc2)cc1", "note": "(stereo not given)", "CPE inhibition": "inactive: -6.46%"},
      {"smiles": "CCN(CC)CCCNc1ccccc1[N+](=O)[O-].O=[N+]([O-])c1cc([N+](=O)[O-])c(O)c([N+](=O)[O-])c1", "CPE inhibition": "inactive: -5.3%"},
      {"smiles": "Cc1c(C(c2ccc3c(c2)OCO3)c2c(C)n(C)n(-c3ccccc3)c2=O)c(=O)n(-c2ccccc2)n1C.O=[N+]([O-])c1cc([N+](=O)[O-])c(O)c([N+](=O)[O-])c1", "CPE inhibition": "inactive: 3.28%"},
      {"smiles": "O=[N+]([O-])c1ccc(OP2(=O)COCCO2)cc1", "note": "(stereo not given)", "CPE inhibition": "inactive: 0.78%"},
      {"smiles": "O=[N+]([O-])c1cc([N+](=O)[O-])c(NCC2CCS(=O)(=O)C2)c([N+](=O)[O-])c1", "note": "(stereo not given)", "CPE inhibition": "inactive: -2%"},
      {"smiles": "Cc1cc(-c2cccc3ccccc23)c(C)cn1.O=[N+]([O-])c1cc([N+](=O)[O-])c(O)c([N+](=O)[O-])c1", "CPE inhibition": "inactive: -0.723%"},
      {"smiles": "COc1ccc(NP(C)(=O)Oc2ccccc2OC)cc1", "note": "(stereo not given)", "CPE inhibition": "inactive: 4.29%"},
      {"smiles": "O=[N+]([O-])c1cc([N+](=O)[O-])c(C(F)(F)F)c([N+](=O)[O-])c1O", "CPE inhibition": "inactive: -3.16%"},
      {"smiles": "CCOP(=O)(CC)OCC", "CPE inhibition": "inactive: -14.1%"},
      {"smiles": "CP(=O)(Nc1ccc(SC(F)(F)F)cc1)Oc1ccc(F)cc1", "note": "(stereo not given)", "CPE inhibition": "inactive: -3.86%"}
    ]}
  ]
}
